These results are taken from ChEMBL document CHEMBL1127857, “Antitumor agents. 155. Synthesis and biological evaluation of 3',6,7-substituted 2-phenyl-4-quinolones as antimicrotubule agents” (J Med Chem, 1994).

This test has as its system NCI-H226. As to the kind of experiment: Tested for in vitro tumor cell growth inhibition of non-small cell lung cancer cell line NCI-H226. The class given is functional. Conditions: Homo sapiens.

What is called GI50 is the concentration that inhibits growth by half. `CC(=O)Nc1ccc2nc(-c3cccc(F)c3)cc(O)c2c1`: the GI50 is 23.4 µM.
